Laboratory results from patent US20210361767A1, “RESCUING CANCER PATIENTS FROM RESISTANCE TO TREATMENT WITH INHIBITORS OF PD-1/PD-L1 INTERACTIONS” (Mayo Foundation for Medical Education and Research, priority 2018, published 2021).

System: CD8+ T cells
Test: CD8+ T cell survival with recombinant PD-L1 (trypan blue)
Format: cell-based, human
Details: for CD8+ T cell survival: trypan blue, n=3, FIG. 5A; for cell death of CD8+ T cells: 24 hours
Protocol: To determine whether sPD-L1 affects antitumor immunity, CD8+ T cells were isolated from healthy volunteers (see, Frigola et al., Clin Cancer Res, 1(177):1915-1923, 2011, for basic experimental protocols) and cultured with PBS or increasing concentrations of recombinant PD-L1. Survival was measured by trypan blue staining (FIG. 5A).
Karpas-299 lymphoma cells producing sB7-H1 were cultured with an array of protease inhibitors. Supernatants from these cultures were isolated and analyzed for sB7H1 concentration by ELISA. Subsequently, activated human CD8+ T cells were cultured with recombinant sB7H1 protein and cell survival was measured at 24 hours. CD8+ T cells also were cultured with sB7H1-rich tumor cell line supernatants versus sB7H1-depleted supernatants over 48 hours in the presence of placebo, low dose (10 nM), or high dose (1 μM) anti-PD-1 antibody pembrolizumab, and cell survival was measured.

In the case of “recombinant PD-L1: recombinant soluble PD-L1 (sB7-H1) protein added to CD8+ T cell cultures”, the “CD8+ T cell survival” value (5 μg/ml recombinant PD-L1 vs PBS, p<0.0001) is reported as “significantly reduced”, the “CD8+ T cell survival” value (10 μg/ml recombinant PD-L1 vs PBS, p<0.001) is reported as “significantly reduced” and the “cell death of CD8+ T cells” value (Example 3, exogenous sB7H1 at 5 μg/ml, p<0.0001) is reported as “induced cell death”. For the same substance, the “cell death of CD8+ T cells” value (Example 3, exogenous sB7H1 at 10 μg/ml, p<0.0001) was “induced cell death”.
